IC50 data for 2 molecules are collected here from patent publication US9145414B2, “1,2,4-triazine-6-carboxamide derivative” (TAIHO PHARMACEUTICAL CO., LTD., priority 2011, dated 2015).

The target of this experiment is human Syk protein (Homo sapiens (Human), UniProt P43405). The experiment can be described thus: Syk kinase inhibition test. Format: biochemical. The note with it: Table 95; read-out: SYK inhibitory activity IC50. How it is done:
Finally, phosphorylated peptides and non-phosphorylated peptides were separated therebetween using LabChip™ 3000 system (Caliper Life Sciences, Inc., excitation wavelength: 488 nm, detection wavelength: 530 nm). Their respective amounts were measured, and the rate of phosphorylation reaction was then determined from the ratio between the amounts. The concentration at which the compound can inhibit 50% phosphorylation reaction is defined as an IC50 value (μM).
Also, known 1,2,4-triazine-6-carboxamide derivatives A, B, and C (WO2000/075113 (A: compound No. 121 and B: compound No. 154) and WO2000/076980 (C: compound No. 39)) were synthesized as control compounds. Their IC50 values (μM) were calculated in the same way as above and then compared with that of the compound of the present invention.

For orientation: IC50 means the concentration needed to halve the response being measured. Turning to `[2H]C([2H])([2H])C([2H])([2H])n1ccc2c(Nc3nc(N[C@@H]4CCCC[C@@H]4N)nnc3C(N)=O)cccc21` [Example 9, 3-((1R,2S)-2-aminocyclohexylamino)-5-(1-(ethyl-d5)-1H-indol-4-ylamino)-1,2,4-triazine-6-carboxamide], the IC50 is 0.9 nM.
For `CCn1ccc2c(Nc3nc(N[C@@H]4CCCC[C@@H]4N)nnc3C(N)=O)cccc21` [Example 17, 3-((1R,2S)-2-aminocyclohexylamino)-5-(1-ethyl-1H-indol-4-ylamino)-1,2,4-triazine-6-carboxamide] the value was 0.21 nM.
